Results: ChEMBL document CHEMBL1240457, “Synthesis and biological evaluation of cyclic nitrogen mustards based on carnitine framework” (2010)

Key:
NCI-H460 = experiment: Cytotoxicity against human H460 cells after 24 hrs by MTT assay
A-375 = experiment: Cytotoxicity against human A375 cells after 24 hrs by MTT assay

O=C(O)CCCc1ccc(N(CCCl)CCCl)cc1
CC50 (NCI-H460): 104 µM | CC50 (A-375): 127 µM
